The list shows a part of the results, in another mix than the full data. More than one record can exist for a structure, and the calls need not agree. The source made the active and inactive calls.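 The calls were made as follows: active = calcium fluorescence response, raw or row-and-column corrected B-score, differing from the plate sample mean either way at a set confidence level, mostly lower; inactive = the rest.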
target: Muscarinic acetylcholine receptor M1 (Rattus norvegicus) (UniProt P08482); assay: blocks the rat M1 muscarinic receptor response to acetylcholine (AID 628); settings: CHO-M1 cells, Fluo-4 calcium, ACh EC80 antagonist mode; at 10 µM; stronger effect = lower value

Protein sequences, listed by entry. Tags and fused reporters are not part of them. Lines headed by an entry give the natural chain unless they say otherwise; changes in a name come on top.
UniProt P08482: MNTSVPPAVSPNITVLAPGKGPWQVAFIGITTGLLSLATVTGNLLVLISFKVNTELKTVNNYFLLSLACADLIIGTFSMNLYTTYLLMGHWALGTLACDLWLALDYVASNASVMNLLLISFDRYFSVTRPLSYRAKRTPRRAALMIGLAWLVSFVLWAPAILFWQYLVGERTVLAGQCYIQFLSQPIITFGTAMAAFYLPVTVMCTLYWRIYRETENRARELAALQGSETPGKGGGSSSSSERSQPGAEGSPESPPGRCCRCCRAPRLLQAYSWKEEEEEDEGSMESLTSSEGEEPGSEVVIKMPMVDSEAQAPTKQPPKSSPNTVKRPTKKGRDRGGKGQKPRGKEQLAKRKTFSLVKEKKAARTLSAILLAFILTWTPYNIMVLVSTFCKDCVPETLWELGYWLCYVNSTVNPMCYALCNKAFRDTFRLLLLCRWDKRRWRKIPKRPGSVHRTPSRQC

B-score, active:
CNCCCN1c2ccccc2CCc2ccccc21 -14.8
Cc1ccccc1C(OCCN(C)C)c1ccccc1 (stereo not drawn) -13.7
OC(CCN1CCCCC1)(c1ccccc1)C1CCCCC1 (stereo not drawn) -15.9
CN1CCC(=C2c3ccccc3CC(=O)c3sccc32)CC1 -15.4
OCCN1CCN(CCCN2c3ccccc3Sc3ccc(Cl)cc32)CC1 -5.8
COc1cc2nc(N3CCN(C(=O)C4CCCO4)CC3)nc(N)c2cc1OC (stereo not drawn) -8.86
CN(C)CCCN1c2ccccc2CCc2ccc(Cl)cc21 -13.9
Cc1ccc(N(CC2=NCCN2)c2cccc(O)c2)cc1 -8.3
CCOC(=O)N1CCC(=C2c3ccc(Cl)cc3CCc3cccnc32)CC1 -9.37
CN1C2CCC1CC(OC(=O)c1c[nH]c3ccccc13)C2 (stereo not drawn) -4.23
CCN(CC)CCOC(=O)C1(C2CCCCC2)CCCCC1 -11.4
CNCCCC12CCC(c3ccccc31)c1ccccc12 -16.7
CC(C)[N+]1(C)[C@@H]2CC[C@H]1CC(OC(=O)C(CO)c1ccccc1)C2 (stereo partly drawn) -11.1
